# Assay results: patent US11541059B2
# The chains behind the UniProt entries cited, without tags or fusion partners.
# UniProt P48736, whole entry: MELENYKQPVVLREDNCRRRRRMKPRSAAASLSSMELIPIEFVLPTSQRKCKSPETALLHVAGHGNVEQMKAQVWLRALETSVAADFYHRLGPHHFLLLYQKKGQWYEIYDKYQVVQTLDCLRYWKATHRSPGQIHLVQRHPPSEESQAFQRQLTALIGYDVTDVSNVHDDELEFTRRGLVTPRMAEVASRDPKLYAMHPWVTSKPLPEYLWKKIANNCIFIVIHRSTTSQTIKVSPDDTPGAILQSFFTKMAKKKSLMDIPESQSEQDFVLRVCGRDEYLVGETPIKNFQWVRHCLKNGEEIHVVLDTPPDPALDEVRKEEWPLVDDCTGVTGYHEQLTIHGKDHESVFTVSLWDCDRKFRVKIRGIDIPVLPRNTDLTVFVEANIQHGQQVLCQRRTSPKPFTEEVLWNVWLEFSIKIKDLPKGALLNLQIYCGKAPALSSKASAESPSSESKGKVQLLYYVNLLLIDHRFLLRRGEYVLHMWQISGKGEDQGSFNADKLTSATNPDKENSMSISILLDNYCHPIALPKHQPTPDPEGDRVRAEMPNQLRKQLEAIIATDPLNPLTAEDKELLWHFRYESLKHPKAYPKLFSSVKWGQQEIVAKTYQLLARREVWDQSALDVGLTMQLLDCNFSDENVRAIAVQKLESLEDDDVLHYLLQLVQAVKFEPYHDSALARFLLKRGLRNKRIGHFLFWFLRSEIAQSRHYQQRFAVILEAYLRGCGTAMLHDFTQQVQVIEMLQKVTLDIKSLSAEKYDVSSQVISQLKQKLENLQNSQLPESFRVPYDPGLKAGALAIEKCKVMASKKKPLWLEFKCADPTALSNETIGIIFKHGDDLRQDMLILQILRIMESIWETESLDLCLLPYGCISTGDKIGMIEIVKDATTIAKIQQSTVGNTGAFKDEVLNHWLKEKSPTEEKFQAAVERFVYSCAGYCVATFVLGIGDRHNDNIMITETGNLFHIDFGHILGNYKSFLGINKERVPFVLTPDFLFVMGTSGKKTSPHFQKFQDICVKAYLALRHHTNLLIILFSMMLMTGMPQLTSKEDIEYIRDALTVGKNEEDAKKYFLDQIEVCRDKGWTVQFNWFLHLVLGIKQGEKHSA
# Target: PI3K γ (Homo sapiens (Human), UniProt P48736)
# Experiment: PI3-Kinase Promega ADP-Glo Max assay
# Details: ratio of biochemical IC50s
smiles,measurement,value
Cc1ccnc2c(C(=O)N[C@@H](C)c3cc4cccc(C#Cc5cnn(C)c5)c4c(=O)n3-c3ccccc3)c(N)nn12,PI3K δ/PI3K γ IC50 (selectivity),X (X = 10 to <50)
